Values of other authors in patent US11819781B2, “Device for solid phase extraction and method for use thereof” (Waters Technologies Corporation, priority 2014, dated 2023).

Details: analyte characteristics; octanol:water

Log P: 1.6
Structure (SMILES): CCOc1ccc(NC(C)=O)cc1 [Phenacetin]
